Laboratory results taken from ChEMBL document CHEMBL4052618, “Design, synthesis, SAR discussion, in vitro and in vivo evaluation of novel selective EGFR modulator to inhibit L858R/T790M double mutants” (Eur J Med Chem, 2017).

How the values were obtained:
Homo sapiens = organism: Homo sapiens; assay: Selectivity ratio of IC50 for human recombinant cytoplasmic GST-tagged EGFR (668 to 1210 residues) to IC50 for human recombinant cytoplasmic GST-tagged EGFR T790M/L858R double mutant (668 to 1210 residues)
Outline: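 HTRF kinase assay on wild-type EGFR and the T790M/L858R mutant, with TK-substrate-biotin, ATP, 1 mM DTT, 1 mM MnCl2 and 5 mM MgCl2. Serially diluted compounds in 1% DMSO were preincubated with kinase for 15 min. The reaction was started with ATP plus substrate, run 60 min at room temperature, then stopped with Strep-XL665/TK Ab-Cryptate and read after 1 h. Run in duplicate, at least three independent IC50 determinations.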

HCC827 = assay: Antiproliferative activity against human HCC827 cells harboring EGFR E746-A750 deletion mutant; assay type: functional, cell-based
Outline: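 A431 was grown in EMEM with 10% FBS; HCC827 and NCI-H1975 were grown in RPMI-1640 with 10% FBS. Cell viability experiments were repeated at least three times.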

| SMILES | Ratio IC50 (Homo sapiens) | IC50 (HCC827) [nM] |
| --- | --- | --- |
| C=CC(=O)Nc1cc(Nc2nc(OC)cc(-c3cn(C)c4ccccc34)n2)c(OC)cc1N(C)CCN(C)C | 52.6 | – |
| C=CC(=O)Nc1cc(Nc2nccc(-c3cn4c5c(cccc35)CCC4)n2)c(OC)cc1N1CCC(CN(C)C)C1 (stereo not given) | 4.6 | – |
| C=CC(=O)Nc1cc(Nc2cc(-c3cn(C)c4ccccc34)ncn2)c(OC)cc1N(C)CCN(C)C | 1.4 | – |
| C=CC(=O)Nc1cc(Nc2cc(-c3cn4c5c(cccc35)CCC4)ncn2)c(OC)cc1N(C)CCN(C)C | 1.2 | – |
| C=CC(=O)Nc1cc(Nc2nccc(-c3cn(C)c4ccccc34)n2)c(OC)cc1N(C)CCN(C)C [OSIMERTINIB] | – | 61.6 |
| C=CC(=O)Nc1cc(Nc2cc(-c3cn4c5c(cccc35)CCC4)nc(OC)n2)c(OC)cc1N(C)CCN(C)C | 24.7 | – |
| C=CC(=O)Nc1cc(Nc2cc(-c3cn(C)c4ccccc34)nc(OC)n2)c(OC)cc1N(C)CCN(C)C | 58.3 | – |
| C=CC(=O)Nc1cc(Nc2nccc(-c3cn4c5c(cccc35)CCC4)n2)c(OC)cc1N1CC(CN(C)C)C1 | 30.2 | – |
| C=CC(=O)Nc1cc(Nc2nccc(-c3cn4c5c(cccc35)CCC4)n2)c(OC)cc1N1CC(N(C)C)C1 | 13 | – |
| C=CC(=O)Nc1cc(Nc2nccc(-c3cn4c5c(cccc35)CCC4)n2)c(OC)cc1N(C)CCN(C)C | 7.4 to 8.3 | – |
